Experimental data: PMC12264551 (Molecular Pharmacology, 2025)

Protein sequences, listed by entry. Tags and fused reporters are not part of them. Residues count along the entry.
UniProt P32241, 31-457: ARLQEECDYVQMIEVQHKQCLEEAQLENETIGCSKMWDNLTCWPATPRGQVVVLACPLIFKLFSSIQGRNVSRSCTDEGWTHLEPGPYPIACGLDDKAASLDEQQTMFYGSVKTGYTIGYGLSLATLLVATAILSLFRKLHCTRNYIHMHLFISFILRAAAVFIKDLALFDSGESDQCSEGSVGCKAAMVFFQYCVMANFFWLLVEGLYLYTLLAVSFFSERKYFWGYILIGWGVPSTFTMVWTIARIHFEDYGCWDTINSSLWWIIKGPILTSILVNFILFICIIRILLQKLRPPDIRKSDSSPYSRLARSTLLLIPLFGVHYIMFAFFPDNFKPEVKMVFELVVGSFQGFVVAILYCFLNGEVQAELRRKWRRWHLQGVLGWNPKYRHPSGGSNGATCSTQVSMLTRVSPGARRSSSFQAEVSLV

Biological target: VPAC1R (Homo sapiens, UniProt P32241)
Assay: Live cell cAMP accumulation (GloSensor), COS-7 cells transfected with VPAC1R
Assay type: cell-based
Parameters: host or cells: COS-7
Conditions: VIP + vehicle, Fig. 6E, fraction of greatest slope, ± SEM, n = 3-5

CC[C@H](C)[C@H](NC(=O)[C@H](CO)NC(=O)[C@H](CC(N)=O)NC(=O)[C@H](CC(C)C)NC(=O)[C@H](Cc1ccc(O)cc1)NC(=O)[C@H](CCCCN)NC(=O)[C@H](CCCCN)NC(=O)[C@@H](NC(=O)[C@H](C)NC(=O)[C@H](CCSC)NC(=O)[C@H](CCC(N)=O)NC(=O)[C@H](CCCCN)NC(=O)[C@H](CCCNC(=N)N)NC(=O)[C@H](CC(C)C)NC(=O)[C@H](CCCNC(=N)N)NC(=O)[C@@H](NC(=O)[C@H](Cc1ccc(O)cc1)NC(=O)[C@H](CC(N)=O)NC(=O)[C@H](CC(=O)O)NC(=O)[C@@H](NC(=O)[C@H](Cc1ccccc1)NC(=O)[C@@H](NC(=O)[C@H](C)NC(=O)[C@H](CC(=O)O)NC(=O)[C@H](CO)NC(=O)[C@@H](N)Cc1c[nH]cn1)C(C)C)[C@@H](C)O)[C@@H](C)O)C(C)C)C(=O)N[C@@H](CC(C)C)C(=O)N[C@@H](CC(N)=O)C(N)=O [VIP, vasoactive intestinal peptide]
Normalized Maximum: 0.95 ± 0.01
